What was measured:
[1] = system: tumor in the left side of the neck (metastatic small cell carcinoma); settings: in vivo
[2] = system: tumor in the left side of the neck (metastatic small cell carcinoma); assay: External gamma dose rate over neck tumor after bolus injection or infusion (ion chamber survey meter)
[3] = cited from earlier work

| Compound | highest mR/mCi ratio of Infusion Dose 1 relative to highest ratio from the bolus injection [1] | ratio of radioligand accumulated per mCi delivered ([2]; Infusion 1) [mR/mCi] | ratio of radioligand accumulated per mCi delivered ([2]; Infusion 2) [mR/mCi] | ratio of radioligand accumulated per mCi delivered ([2]; Infusion 3) [mR/mCi] | ratio of mR accumulated per mCi delivered ([2]; bolus injection) [mR/mCi] | biologic half-life [3] |
| --- | --- | --- | --- | --- | --- | --- |
| C[C@@H](O)[C@@H]1NC(=O)[C@H](CCCCN)NC(=O)[C@@H](Cc2c[nH]c3ccccc23)NC(=O)[C@H](Cc2ccccc2)NC(=O)[C@@H](NC(=O)[C@@H](Cc2ccccc2)NC(=O)CN2CCN3CCN(CC(=O)O)CC(=O)[O][111In]([O]C(=O)C3)[O]C(=O)C2)CSSC[C@@H](C(=O)N[C@H](CO)[C@@H](C)O)NC1=O [^111In-pentetreotide, ^111In-DTPA-D-Phe^1-octreotide] | almost five times higher | 66 | 96 | 121 | 23 |  |
| C[C@@H](O)[C@@H]1NC(=O)[C@H](CCCCN)NC(=O)[C@@H](Cc2c[nH]c3ccccc23)NC(=O)[C@H](Cc2ccccc2)NC(=O)[C@@H](NC(=O)[C@H](N)Cc2ccccc2)CSSC[C@@H](C(=O)N[C@H](CO)[C@@H](C)O)NC1=O [octreotide acetate] |  |  |  |  |  | 90-120 min |

Reference: US6630123B1, “Method to enhance tissue accumulation of radiolabeled compounds” (Board of Supervisors of Louisiana State University and …, priority 1997, dated 2003)
